Test results reported in PubChem BioAssay (NCI).
This is a selection; strong and weak results do not stand in their true shares.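 Single-dose data. Exposure time 48 hours. Values below 10 considered active.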 The source made the active and inactive calls.

What was measured:
Experiment in all cases: NCI-60 one-dose screen, 48 h (100 = growth as untreated, 0 = no growth, -100 = all killed)
Conditions in all cases: 10 µM unless noted
SK-MEL-2 melanoma = system: SK-MEL-2 melanoma
EKVX NSCLC = system: EKVX NSCLC
SN12C renal = system: SN12C renal
UO-31 renal = system: UO-31 renal
TK-10 renal = system: TK-10 renal
ACHN renal = system: ACHN renal
CAKI-1 renal = system: CAKI-1 renal
A498 renal = system: A498 renal
HL-60(TB) leukemia = system: HL-60(TB) leukemia
CCRF-CEM leukemia = system: CCRF-CEM leukemia

Measured: growth

O=S1(=O)CC(Sc2ccccc2)[C@@H](Cl)C1 (stereo not given in full)
inactive: SK-MEL-2 melanoma 109% | EKVX NSCLC 104% | SN12C renal 99.9% | UO-31 renal 92.1% | TK-10 renal 93.4% | ACHN renal 121% | CAKI-1 renal 102% | A498 renal 82.8% | HL-60(TB) leukemia 91.2% | CCRF-CEM leukemia 98.8%

C[As](=O)(O)c1cccc(C(=O)O)c1
inactive: SK-MEL-2 melanoma 106% | EKVX NSCLC 96.1% | SN12C renal 107% | UO-31 renal 75.2% | TK-10 renal 107% | ACHN renal 98.1% | CAKI-1 renal 97.7% | A498 renal 102% | HL-60(TB) leukemia 64.5% | CCRF-CEM leukemia 99.6%

CC[C@H](C)[C@@H]1NC(=O)/C(=C(\C)O)C1=O
inactive: SK-MEL-2 melanoma 108% | EKVX NSCLC 98.3% | SN12C renal 90.1% | UO-31 renal 94.3% | TK-10 renal 110% | ACHN renal 87.9% | CAKI-1 renal 79% | A498 renal 107% | HL-60(TB) leukemia 121% | CCRF-CEM leukemia 128%

O=P(O)(O)F
inactive: SK-MEL-2 melanoma 121% | EKVX NSCLC 105% | SN12C renal 99.4% | UO-31 renal 84.1% | TK-10 renal 113% | ACHN renal 100% | CAKI-1 renal 93.5% | A498 renal 92.8% | HL-60(TB) leukemia 110% | CCRF-CEM leukemia 100%

CC(C)c1nc(Nc2ccccc2)n(P(=O)(N(C)C)N(C)C)n1
inactive: SK-MEL-2 melanoma 103% | EKVX NSCLC 106% | SN12C renal 98.9% | UO-31 renal 87.8% | TK-10 renal 102% | ACHN renal 104% | CAKI-1 renal 102% | A498 renal 92.2% | HL-60(TB) leukemia 107% | CCRF-CEM leukemia 95%

O=C(O[C@H]1CN2CCC1CC2)C1NCc2ccccc2[C@@H]1c1ccccc1 (stereo not given in full)
inactive: SK-MEL-2 melanoma 106% | EKVX NSCLC 90.2% | SN12C renal 93.4% | UO-31 renal 62.6% | TK-10 renal 97.3% | ACHN renal 96.7% | CAKI-1 renal 80.5% | A498 renal 121% | HL-60(TB) leukemia 93.2% | CCRF-CEM leukemia 91.7%

ClCCNCC1COc2ccccc2O1 (stereo not given)
inactive: SK-MEL-2 melanoma 103% | EKVX NSCLC 102% | SN12C renal 101% | UO-31 renal 85.9% | TK-10 renal 93.1% | ACHN renal 106% | CAKI-1 renal 96.9% | A498 renal 80.9% | HL-60(TB) leukemia 107% | CCRF-CEM leukemia 102%

Nc1ccc([As](=O)(O)c2ccc([N+](=O)[O-])cc2)cc1
inactive: SK-MEL-2 melanoma 115% | EKVX NSCLC 95.6% | SN12C renal 101% | UO-31 renal 81.7% | TK-10 renal 119% | ACHN renal 92.9% | CAKI-1 renal 94.6% | A498 renal 108% | HL-60(TB) leukemia 88.4% | CCRF-CEM leukemia 102%

CCCCOP(=O)(OCCCC)N1CCCC1C(=O)O (stereo not given)
inactive: SK-MEL-2 melanoma 122% | EKVX NSCLC 93.6% | SN12C renal 98.4% | UO-31 renal 96.2% | TK-10 renal 98.7% | ACHN renal 107% | CAKI-1 renal 98% | A498 renal 77.9% | HL-60(TB) leukemia 77.8% | CCRF-CEM leukemia 103%

CCN(CCCl)C(Cc1ccccc1)c1ccccc1 (stereo not given)
inactive: SK-MEL-2 melanoma 101% | EKVX NSCLC 108% | SN12C renal 92.4% | UO-31 renal 89.6% | TK-10 renal 90.6% | ACHN renal 108% | CAKI-1 renal 101% | A498 renal 78.3% | HL-60(TB) leukemia 73.8% | CCRF-CEM leukemia 103%

O=C(Oc1c(Cl)cc(Cl)cc1[N+](=O)[O-])c1cc([N+](=O)[O-])cc([N+](=O)[O-])c1
inactive: SK-MEL-2 melanoma 121% | EKVX NSCLC 104% | SN12C renal 104% | UO-31 renal 92.8% | TK-10 renal 119% | ACHN renal 100% | CAKI-1 renal 84% | A498 renal 89.9% | HL-60(TB) leukemia 105% | CCRF-CEM leukemia 97.7%

CC(C)(NCCCl)C(O)c1ccccc1 (stereo not given)
inactive: SK-MEL-2 melanoma 80.5% | EKVX NSCLC 104% | SN12C renal 88.7% | UO-31 renal 94.1% | TK-10 renal 83.5% | ACHN renal 85.2% | CAKI-1 renal 80.9% | A498 renal 104% | HL-60(TB) leukemia 93% | CCRF-CEM leukemia 72.2%

Nc1ccc(N=Nc2ccc([As](=O)(O)O)cc2)cc1
inactive: SK-MEL-2 melanoma 118% | EKVX NSCLC 114% | SN12C renal 107% | UO-31 renal 77.6% | TK-10 renal 115% | ACHN renal 95.7% | CAKI-1 renal 89.3% | A498 renal 90.1% | HL-60(TB) leukemia 107% | CCRF-CEM leukemia 96.6%

ClCCN1c2ccccc2Sc2ccccc21
inactive: SK-MEL-2 melanoma 97.9% | EKVX NSCLC 96.4% | SN12C renal 111% | UO-31 renal 92.8% | TK-10 renal 102% | ACHN renal 108% | CAKI-1 renal 85.9% | A498 renal 103% | HL-60(TB) leukemia 107% | CCRF-CEM leukemia 105%
